Measured affinities in a library of Ab-91 heavy chain variants

All variants were tested on one target, the spike HR2 peptide PDVDLGDISGINAS (SARS-CoV-2).

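Phage display of a naive human antibody library on the peptide gave the parent. Library AAYL51 holds single substitutions and randomly drawn double and triple substitutions in the CDRs. The assay is AlphaSeq: two haploid yeast populations carry antibody and antigen on their surface. Pairs that bind mate more often; barcode pairs of the diploids are counted by sequencing. Each replicate has its own calibration line, from reference interactions of the BCL2 family. Mating was done three times.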

Each scFv is VL, a 15-residue (Gly4Ser)3 linker, VH, as in the parent Ab-91, and differs from it in the CDRs of the heavy chain only.
VL: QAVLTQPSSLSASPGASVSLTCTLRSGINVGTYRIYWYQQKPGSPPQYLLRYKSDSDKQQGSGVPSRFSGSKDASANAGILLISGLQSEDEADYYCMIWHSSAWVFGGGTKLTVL
VH: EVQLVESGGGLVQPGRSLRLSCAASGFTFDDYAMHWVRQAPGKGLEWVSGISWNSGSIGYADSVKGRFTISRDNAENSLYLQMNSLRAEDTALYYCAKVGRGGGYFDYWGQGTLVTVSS

The parent's heavy chain CDRs are GFTFDDYAMH, GISWNSGSIGYADSVK, VGRGGGYFDY; each variant's own CDRs replace them letter for letter. The read-out is the apparent dissociation constant on a log10 scale (nM): the lower, the stronger. A pair that was not seen in that replicate is written "nd"; this usually means weak binding, but a binder can also be missed.

CDR-H1,CDR-H2,CDR-H3,log10 Kd (nM) by replicate,control signals
GFTFDDYAMH,TISWNSGSIGYADSVK,NGRGGPYFDY,nd nd nd,0 of 9
GFTFDDYAMH,GISWNSGSIGYADGVP,VGRGEGYFDY,4.98 nd nd,3 of 9 (4.98)
PFTYDDYAMH,GISWNSGSIGYADSVK,VGRGIGYFDY,nd nd 5.36,3 of 9 (4.93)
GFTFDDYAMV,GIFWNSGSIGYADSVL,VGRGGGYFDY,4.77 nd 5.00,5 of 9 (4.92)
GFTFDDYAMH,GISGNSGSIGYADSVH,CGRGGGYFDY,2.61 2.76 1.77,3 of 9 (3.91)
DFTFDDYAMH,GISWNSGSVGYIDSVK,VGRGGGYFDY,5.07 nd nd,0 of 9
GFTFDDYAMH,LISWNSGSIGYADPVK,VGTGGGYFDY,5.03 nd nd,1 of 9 (4.32)
GFTHDDYAMH,GISWNSGSIGYADDVK,VGRGGGYFDY,4.67 3.81 4.48,2 of 9 (4.28)
PFTPDDYAMH,GISWNSGSIGYADSVK,VTRGGGYFDY,3.97 nd nd,4 of 9 (4.86)
GFTFDDYAMH,GISHNSGQHGYADSVK,VGRGGGYFDY,0.56 0.52 -0.12,9 of 9 (5.40)
GFTFADYAMH,GISWNSGSIGYADSVK,VMRLGGYFDY,0.97 0.92 0.53,3 of 9 (4.61)
GFTFDYYAMH,GISKNSGSIGLADSVK,VGRGGGYFDY,nd nd 4.00,1 of 9 (4.26)
GFTFDDYAMH,GISWNSGSDGYADGVK,VGRGGGYFDI,1.56 1.36 1.23,1 of 9 (3.49)
GFTFDDYAWW,GISWNSGSIMYADSVK,VGRGGGYFDY,nd nd nd,0 of 9
GFTFDDYAMH,GISWNSGSIGYASSEK,YGRGGGYFDY,4.96 nd 3.25,0 of 9
GFTFDDYAMH,GISWNSGSIGGADSVK,VGRHGGAFDY,nd 4.53 4.82,1 of 9 (4.31)
GFTFDDYAMH,GIMWNSGEIGYADSVK,VGRGGGCFDY,nd nd 3.91,2 of 9 (4.01)
GFTFDDYAMH,GYSWNSGSIGYADSVK,VGRGGGYFCY,nd nd nd,2 of 9 (5.09)
GFTDDDYAMH,GICWNSGSIGYWDSVK,VGRGGGYFDY,nd nd nd,0 of 9
GFRFDDYAMH,GISWNSGSIGYADSVK,VGRGGGCFDY,nd nd nd,2 of 9 (4.73)
GFTFDDYAMD,GISWNAGSIGYHDSVK,VGRGGGYFDY,nd nd nd,1 of 9 (3.82)
LFTFDDYAMH,GISWNSGSIGCADSVC,VGRGGGYFDY,nd nd nd,0 of 9
GFTFDDYAMH,GISWNPGSITNADSVK,VGRGGGYFDY,4.67 5.15 5.19,3 of 9 (5.47)
GFTFDDYAMH,GIPWNSGSIGYADSSK,VGRGGGYFDY,nd 2.97 nd,0 of 9
GFTFDDYAMH,GISMNSGSIGYADSVK,VGYGGGDFDY,nd 4.66 nd,1 of 9 (3.91)
GFTFDDYAIH,GISWNSGSQGYADSVK,VGRGGGYFHY,4.72 nd nd,4 of 9 (4.93)
GFTFDDYAKH,GISWNSGSIGRADLVK,VGRGGGYFDY,nd nd nd,0 of 9
GFTFDDYAMH,GISWNSGSHGYAKSVK,VGRGGGYFHY,2.91 3.21 3.25,3 of 9 (4.91)
GFTFDDYAMH,YISWNMMSIGYADSVK,VGRGGGYFDY,nd nd nd,0 of 9
GFTFDDYAMH,GILWCSGSIGYADSVK,AGRGGGYFDY,4.34 nd nd,0 of 9
GFTFDDGAMH,GISWNSGSIGQADSVK,VGRGGGAFDY,nd nd nd,1 of 9 (3.67)
GFTFDDYAMH,GIDWNSGSIPYADSVK,VGRGGGYFTY,nd nd nd,1 of 9 (3.65)
GFTFDDYNMH,GISGNSGSIGYADSVK,VGRAGGYFDY,4.55 nd nd,2 of 9 (5.00)
AFTFDDYAMH,KISWNSGSIGYADSVK,VGRCGGYFDY,nd nd nd,0 of 9
GFTFIDYAMH,GIDWNAGSIGYADSVK,VGRGGGYFDY,nd nd nd,1 of 9 (4.06)
GFTFDDYAMH,GIPWNSGKIGYADSVF,VGRGGGYFDY,nd nd nd,1 of 9 (4.08)
GFTFDDYAHH,GISWNSGEIGYADSVK,VMRGGGYFDY,nd nd nd,0 of 9
LFTWDDYAMH,GISWNSGSIGYADKVK,VGRGGGYFDY,nd nd nd,1 of 9 (3.52)
GFTFDDYAMH,RPSWNSGSIGYADSVK,VWRGGGYFDY,nd nd nd,3 of 9 (4.34)
GFTFDDYYMH,GISWNSPSIGYADSVL,VGRGGGYFDY,5.37 4.77 5.14,3 of 9 (4.71)
GFTVDDYAMA,GYSWNSGSIGYADSVK,VGRGGGYFDY,nd nd nd,0 of 9
GFTFDDYAMC,GISWNSGSIGYCDSVK,VGRGGGYFDY,nd nd nd,0 of 9
GFLFDDYAMH,GISWNSGSIGYADSRK,VGRGGAYFDY,nd nd nd,0 of 9
GFTFDDYAMH,GIWWNSGSITYADSVK,VGRGGGYMDY,4.31 nd 4.03,1 of 9 (3.37)

Excerpt, the final 5 entries:

{"CDR-H1": "GFTFDDYYMH", "CDR-H2": "GISWNSPSIGYADSVL", "CDR-H3": "VGRGGGYFDY", "log10 Kd (nM) by replicate": "5.37 4.77 5.14", "control signals": "3 of 9 (4.71)"}
{"CDR-H1": "GFTVDDYAMA", "CDR-H2": "GYSWNSGSIGYADSVK", "CDR-H3": "VGRGGGYFDY", "log10 Kd (nM) by replicate": "nd nd nd", "control signals": "0 of 9"}
{"CDR-H1": "GFTFDDYAMC", "CDR-H2": "GISWNSGSIGYCDSVK", "CDR-H3": "VGRGGGYFDY", "log10 Kd (nM) by replicate": "nd nd nd", "control signals": "0 of 9"}
{"CDR-H1": "GFLFDDYAMH", "CDR-H2": "GISWNSGSIGYADSRK", "CDR-H3": "VGRGGAYFDY", "log10 Kd (nM) by replicate": "nd nd nd", "control signals": "0 of 9"}
{"CDR-H1": "GFTFDDYAMH", "CDR-H2": "GIWWNSGSITYADSVK", "CDR-H3": "VGRGGGYMDY", "log10 Kd (nM) by replicate": "4.31 nd 4.03", "control signals": "1 of 9 (3.37)"}

Three control strains display no target. For library AAYL51, 21% of the pairings with them gave a signal, with a median of 4.54 and one signal in twenty below 3.26, so weak values seen in few replicates may be background. Also given: how often the same scFv was detected with the empty control strains, with their mean in brackets.

From the AlphaSeq antibody data of Engelhart et al. 2022 (doi:10.1038/s41597-022-01779-4), copy in the FLAb collection.